From PMC3018526, “Allosteric Interactions between the Myristate- and ATP-Site of the Abl Kinase” (PLoS ONE, 2011)

By UniProt entry, the sequences of proteins in these tests, tags left out. Residues count along the entry.
UniProt P00519, 46-515: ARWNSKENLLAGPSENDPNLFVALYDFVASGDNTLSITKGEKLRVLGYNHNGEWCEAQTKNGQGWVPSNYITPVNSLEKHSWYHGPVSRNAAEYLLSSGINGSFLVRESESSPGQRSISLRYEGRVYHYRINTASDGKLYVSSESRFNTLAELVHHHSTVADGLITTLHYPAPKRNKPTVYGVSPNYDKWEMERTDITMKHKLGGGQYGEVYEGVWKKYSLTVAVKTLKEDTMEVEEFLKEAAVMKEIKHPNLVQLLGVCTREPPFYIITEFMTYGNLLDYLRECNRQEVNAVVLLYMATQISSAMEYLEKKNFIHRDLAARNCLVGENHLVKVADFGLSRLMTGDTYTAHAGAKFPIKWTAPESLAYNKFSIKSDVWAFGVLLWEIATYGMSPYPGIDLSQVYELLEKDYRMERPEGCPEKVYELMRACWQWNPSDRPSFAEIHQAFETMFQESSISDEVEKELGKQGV

Molecular target: T1, Abl kinase (c-Abl), wild-type (Homo sapiens, UniProt P00519)
T1 construct: gene ABL1
Test: biochemical

IC50: 220 nM
SMILES: O=C(NCCO)c1cccc(-c2cc(Nc3ccc(OC(F)(F)F)cc3)ncn2)c1 [GNF-5]
